## Measured affinities in a library of Ab-14 heavy chain variants

Target peptide (SARS-CoV-2 spike, HR2 region): PDVDLGDISGINAS

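Phage display of a naive human antibody library on the peptide gave the parent. This is the validation round: designs drawn from the data on random variants, tested in the same kind of assay. Group labels follow the data file (Ctrl: baseline library sampled from a position-specific scoring matrix, with some repeated check sequences; Rand: our label for a block that the file lists under HC and that is probably the random mutants of the ten best first-round binders; GP: Gaussian process model; GPLM: also part of the Gaussian process libraries; HC: hill climbing; Gen: genetic algorithm; Gibbs: Gibbs sampling; a sequence that several methods proposed may carry one label only). The scFvs were displayed on barcoded MATa yeast, the peptide on MATalpha yeast. Binding brings cells together so that they mate, and sequencing counts the barcode pairs among the diploids. Read counts were normalised to the haploid input and turned into Kd by a linear fit to BCL2-family pairs of known affinity, for each replicate. The assay was run in six technical replicates.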

The variants keep the light chain, the linker and the frameworks of Ab-14 (scFv order VH, a 15-residue (Gly4Ser)3 linker, VL).
VH: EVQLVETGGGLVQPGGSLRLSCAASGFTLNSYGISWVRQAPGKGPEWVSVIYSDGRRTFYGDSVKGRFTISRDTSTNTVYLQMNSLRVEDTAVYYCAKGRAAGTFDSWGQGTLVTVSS
VL: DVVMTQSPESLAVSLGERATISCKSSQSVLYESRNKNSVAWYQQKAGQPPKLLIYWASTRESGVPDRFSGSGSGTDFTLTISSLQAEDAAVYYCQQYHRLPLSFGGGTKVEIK

Substitutions are numbered in sequence along the VH above, starting at 1 (not Kabat). This list holds designs with at most six substitutions. Scale: log10 of Kd in nM, estimated from mating counts; low values are strong binders. Averages over replicates are reported, and they cover detected replicates only. Where no diploid with the target was found in any replicate, the entry reads "nd": below detection, most likely a poor binder, though not proof of it. Where one sequence has several entries in the source, the replicates are pooled. Nonspecific signal, from three strains lacking the peptide, appeared in 1% of pairings of all heavy chain designs, centred on 2.08 (5% of these signals below 0.84); values are not corrected for it. The authors' rule: three or more of the six replicates give a measured affinity, fewer mean a poor binder. The parent sequence was in this pool as ten entries: three were never detected, three once, and four in most replicates, with averages from 0.34 to 2.37. Values of this round are not directly comparable with the first-round values of the same sequences.

With S31E+V64F [Ctrl] the result was 0.48 (6 of 6 replicates).
With T28D+G61V+S107V [GP_Gibbs] the result was 0.87 (6 of 6 replicates).
With T28N+G61V+S63D+R100Q [GP_Gen] the result was 0.93 (4 of 6 replicates).
With S31E+R56V+G61A+V64F [Ctrl] the result was 0.76 (6 of 6 replicates).
With T28D+S31E+S63A+R100Q [GP_HC] the result was 0.10 (6 of 6 replicates).
With N30Q [Ctrl] the result was nd (0 of 6 replicates).
With S31Q+R56T+G61S [GPLM_HC] the result was 0.29 (6 of 6 replicates).
With T28S+S63D+R100N+A101V+S107K [GP_Gibbs] the result was -0.78 (6 of 6 replicates).
With T28E+G61A+A101T+S107T [GPLM_Gibbs] the result was -0.03 (6 of 6 replicates).
With T28D+I51Q+T104W+D106N [Rand] the result was nd (0 of 6 replicates).
With S53A+A101E+S107K [GP_Gibbs] the result was -0.20 (6 of 6 replicates).
With T28S+S31D+S63W+A101T [GPLM_Gen] the result was 0.43 (6 of 6 replicates).
With T28D+S31E [Ctrl+GPLM_Gen] the result was -0.02 (12 of 12 replicates).
With T28D+S63A+R100N [GPLM_Gibbs] the result was 0.58 (4 of 6 replicates).
With T28S+R56L+G61Q [Ctrl] the result was 0.70 (6 of 6 replicates).
With A102M+S107A [Ctrl] the result was nd (0 of 6 replicates).
With G26K+T28S+S31E+G61A+A101T [GPLM_Gen] the result was 0.31 (6 of 6 replicates).
With T28N+S63D+R100N [GP_Gen] the result was 0.45 (6 of 6 replicates).
With S53A+G61I+T104G [Ctrl] the result was nd (0 of 6 replicates).
With F27H+T28D+T104W+D106N [Rand] the result was nd (0 of 6 replicates).
With T28S+S31E+R56Q+G61V+A101T [GP_Gibbs] the result was 0.25 (6 of 6 replicates).
With T28S+S31D+A101T [GPLM_Gen] the result was 0.60 (6 of 6 replicates).
With T28E+R56Q+G61V+A101Q [GP_Gen] the result was 1.23 (6 of 6 replicates).
With T28D+G61K+R100N+A101E [GP_Gibbs] the result was -0.14 (6 of 6 replicates).
With S31D+G61H+D106K [GPLM_HC] the result was 3.01 (2 of 6 replicates).
With T28E+G61D+R100S+A101T [GP_Gibbs] the result was -0.22 (6 of 6 replicates).
With F27T+T58V+A101G+A102Y [Ctrl] the result was nd (0 of 6 replicates).
With S31E+G61E+A101H [GP_HC] the result was 0.76 (6 of 6 replicates).
With T28S+S31D+A101H [GPLM_Gen] the result was 0.23 (4 of 6 replicates).
With I51D+G61Y+D106L+S107L [Ctrl] the result was nd (0 of 6 replicates).

The opening 4 entries, copied out:

changes,group,"mean, log10 nM",seen in
S31E+V64F,Ctrl,0.48,6/6
T28D+G61V+S107V,GP_Gibbs,0.87,6/6
T28N+G61V+S63D+R100Q,GP_Gen,0.93,4/6
S31E+R56V+G61A+V64F,Ctrl,0.76,6/6

Reference: Li et al. 2023, doi:10.1038/s41467-023-39022-2. File: FLAb, binding data.